AlphaSeq binding of Ab-14 heavy chain variants to a spike HR2 peptide

Data: MIT Lincoln Laboratory AlphaSeq set, Engelhart et al. 2022, doi:10.1038/s41597-022-01779-4, as distributed in FLAb.

The target is the same throughout: PDVDLGDISGINAS, from the HR2 region of SARS-CoV-2 spike.

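The parent was found by panning a naive human phage display library on the peptide. In library AAYL49, one, two or three CDR residues were substituted; doubles and triples were drawn at random. The scFvs were displayed on barcoded MATa yeast, the peptide on MATalpha yeast. Pairs that bind mate more often; barcode pairs of the diploids are counted by sequencing. The ratio of observed to expected reads was calibrated, replicate by replicate, on BCL2-family standards whose Kd was known from biolayer interferometry. Mating was done three times.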

Parent scFv Ab-14: VH joined to VL by the linker GGGGSGGGGSGGGGS. Changes lie in the heavy chain CDRs alone.
VH: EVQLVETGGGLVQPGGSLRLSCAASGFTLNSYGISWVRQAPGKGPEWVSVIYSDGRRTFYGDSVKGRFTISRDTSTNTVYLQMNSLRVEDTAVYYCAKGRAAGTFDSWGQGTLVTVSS
VL: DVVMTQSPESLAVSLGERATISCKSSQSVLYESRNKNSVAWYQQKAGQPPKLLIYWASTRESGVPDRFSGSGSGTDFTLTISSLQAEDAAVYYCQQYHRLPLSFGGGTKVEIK

Variants are written as CDR1, CDR2 and CDR3 of the heavy chain (limits as in the source). Parent: GFTLNSYGIS, VIYSDGRRTFYGDSVK, GRAAGTFDS. Scale: log10 of Kd in nM, estimated from mating counts; low values are strong binders. A pair that was not seen in that replicate is written "n.d."; this usually means weak binding, but a binder can also be missed. Nonspecific signal, from three strains lacking the peptide, appeared in 15% of pairings of library AAYL49, centred on 4.06 (5% of these signals below 2.83); values are not corrected for it. The control count says in how many pairings with the empty strains this scFv gave a signal, with their mean in brackets. Parent in this assay: reference entry 0.65, copy in this library 4.11 (one replicate of three).

{"CDR-H1": "GETSNSYGIS", "CDR-H2": "VIYSDGRRTFYGDSVK", "CDR-H3": "GRASGTFDS", "log10 Kd (nM) by replicate": "n.d. / n.d. / n.d.", "signal with controls": "0/9"}
{"CDR-H1": "GFTLNSYGIS", "CDR-H2": "VIYSDGRRTFRHDSVK", "CDR-H3": "GRAAGTFKS", "log10 Kd (nM) by replicate": "n.d. / n.d. / 4.63", "signal with controls": "3/9 (4.06)"}
{"CDR-H1": "GFTLNSYGIS", "CDR-H2": "VIYSDGPRTFYGDSVK", "CDR-H3": "GRAAGTFDS", "log10 Kd (nM) by replicate": "n.d. / n.d. / n.d.", "signal with controls": "0/9"}
{"CDR-H1": "GFTMNSYGIS", "CDR-H2": "VIYADGRRTFYGDSVK", "CDR-H3": "CRAAGTFDS", "log10 Kd (nM) by replicate": "1.49 / 1.25 / 1.81", "signal with controls": "2/9 (3.49)"}
{"CDR-H1": "GFTQNSYGIS", "CDR-H2": "HIYSDGRATFYGDSVK", "CDR-H3": "GRAAGTFDS", "log10 Kd (nM) by replicate": "n.d. / 2.98 / 5.16", "signal with controls": "4/9 (3.98)"}
{"CDR-H1": "GFTLNSYGWS", "CDR-H2": "VIYSDGRRWFYGDSWK", "CDR-H3": "GRAAGTFDS", "log10 Kd (nM) by replicate": "n.d. / n.d. / n.d.", "signal with controls": "1/9 (2.99)"}
{"CDR-H1": "GFTLVSYGIS", "CDR-H2": "VIYSDGRRTMYGDSVK", "CDR-H3": "GRAARTFDS", "log10 Kd (nM) by replicate": "n.d. / n.d. / n.d.", "signal with controls": "0/9"}
{"CDR-H1": "GFTLNSYGIS", "CDR-H2": "EIYSDGRRTFYGDSVK", "CDR-H3": "GRAAFTFDS", "log10 Kd (nM) by replicate": "n.d. / 3.63 / n.d.", "signal with controls": "1/9 (4.30)"}
{"CDR-H1": "WFTLNEYGIS", "CDR-H2": "VIYSDGRRTFYGDSVK", "CDR-H3": "GRAEGTFDS", "log10 Kd (nM) by replicate": "2.22 / 2.11 / 2.05", "signal with controls": "2/9 (3.40)"}
{"CDR-H1": "GFSLNSYGIS", "CDR-H2": "VIYSDGRRTFYGPSVK", "CDR-H3": "GRAAGTADS", "log10 Kd (nM) by replicate": "n.d. / n.d. / n.d.", "signal with controls": "1/9 (4.05)"}
{"CDR-H1": "GFTLNMGGIS", "CDR-H2": "RIYSDGRRTFYGDSVK", "CDR-H3": "GRAAGTFDS", "log10 Kd (nM) by replicate": "n.d. / n.d. / n.d.", "signal with controls": "3/9 (3.80)"}
{"CDR-H1": "GFTLNSYGIS", "CDR-H2": "PIYSYGRRTFYGDSVK", "CDR-H3": "GRAAGAFDS", "log10 Kd (nM) by replicate": "n.d. / 4.26 / n.d.", "signal with controls": "2/9 (5.02)"}
{"CDR-H1": "GFTLNSYGIS", "CDR-H2": "LIYDDGRRTFYGDSVK", "CDR-H3": "GRAKGTFDS", "log10 Kd (nM) by replicate": "n.d. / n.d. / n.d.", "signal with controls": "2/9 (4.57)"}
{"CDR-H1": "GFTLNSYGIS", "CDR-H2": "VIYSNGRRTFYGDSTK", "CDR-H3": "GRAAFTFDS", "log10 Kd (nM) by replicate": "4.29 / n.d. / n.d.", "signal with controls": "1/9 (3.47)"}
{"CDR-H1": "GFTLNSYGQS", "CDR-H2": "VIYNDGRRTFYGDSVK", "CDR-H3": "VRAAGTFDS", "log10 Kd (nM) by replicate": "n.d. / n.d. / n.d.", "signal with controls": "0/9"}
{"CDR-H1": "GFTLNSVGIS", "CDR-H2": "VYYSDGRRTFYGDSVK", "CDR-H3": "GRAAHTFDS", "log10 Kd (nM) by replicate": "n.d. / n.d. / n.d.", "signal with controls": "1/9 (2.77)"}
{"CDR-H1": "GFTLNSYGIS", "CDR-H2": "VIYSDGRRTFYGDSVK", "CDR-H3": "GRLAGWFRS", "log10 Kd (nM) by replicate": "n.d. / n.d. / n.d.", "signal with controls": "0/9"}
{"CDR-H1": "GFTLNSYGIS", "CDR-H2": "VIYSDGRRTFYGDSVK", "CDR-H3": "GRADGTFDS", "log10 Kd (nM) by replicate": "3.16 / 2.58 / 2.42", "signal with controls": "6/9 (4.35)"}
{"CDR-H1": "GYTLNSYGIS", "CDR-H2": "VIYSDGRRTFEEDSVK", "CDR-H3": "GRAAGTFDS", "log10 Kd (nM) by replicate": "5.02 / 4.75 / n.d.", "signal with controls": "2/9 (4.28)"}
{"CDR-H1": "GFTLSSYGIS", "CDR-H2": "VIYSDGRRTFYGDSVK", "CDR-H3": "GLAAGTFDR", "log10 Kd (nM) by replicate": "n.d. / 2.20 / 2.17", "signal with controls": "2/9 (3.23)"}
{"CDR-H1": "GFTLNSYGIS", "CDR-H2": "VIYSDGRSTFYEDRVK", "CDR-H3": "GRAAGTFDS", "log10 Kd (nM) by replicate": "n.d. / n.d. / n.d.", "signal with controls": "2/9 (4.93)"}
{"CDR-H1": "GFTLNSYGIS", "CDR-H2": "VIYSDGRRTFYGDSVK", "CDR-H3": "GRAAGGFDS", "log10 Kd (nM) by replicate": "4.43 / n.d. / 4.54", "signal with controls": "0/9"}
{"CDR-H1": "GFMLNSYGIS", "CDR-H2": "VIYQDGRRTFYEDSVK", "CDR-H3": "GRAAGTFDS", "log10 Kd (nM) by replicate": "3.58 / 3.19 / 5.48", "signal with controls": "3/9 (4.16)"}
{"CDR-H1": "LFTLNSYGIS", "CDR-H2": "VIYSDGRRTFYGDMVK", "CDR-H3": "GIAAGTFDS", "log10 Kd (nM) by replicate": "n.d. / n.d. / n.d.", "signal with controls": "0/9"}
{"CDR-H1": "AFTLNSYGIS", "CDR-H2": "VIYSDGRTYFYGDSVK", "CDR-H3": "GRAAGTFDS", "log10 Kd (nM) by replicate": "2.39 / 4.64 / n.d.", "signal with controls": "4/9 (3.79)"}
{"CDR-H1": "GFTDNSYGIS", "CDR-H2": "FIYSDGRRTFYGDSVK", "CDR-H3": "GRAAGTWDS", "log10 Kd (nM) by replicate": "n.d. / 2.93 / n.d.", "signal with controls": "1/9 (4.45)"}
{"CDR-H1": "GFTLNSYGIL", "CDR-H2": "VIYSDGRRTFYFDKVK", "CDR-H3": "GRAAGTFDS", "log10 Kd (nM) by replicate": "n.d. / n.d. / n.d.", "signal with controls": "0/9"}
{"CDR-H1": "GFTLNEYGIS", "CDR-H2": "VIYSDGRRTFYGDSVK", "CDR-H3": "TRAAGTFDS", "log10 Kd (nM) by replicate": "n.d. / n.d. / n.d.", "signal with controls": "0/9"}
{"CDR-H1": "GFTLNSYGIS", "CDR-H2": "VIYSYGRRTFQGDHVK", "CDR-H3": "GRAAGTFDS", "log10 Kd (nM) by replicate": "n.d. / n.d. / n.d.", "signal with controls": "0/9"}

The first 2 variants above that were never detected:

{"CDR-H1": "GETSNSYGIS", "CDR-H2": "VIYSDGRRTFYGDSVK", "CDR-H3": "GRASGTFDS", "log10 Kd (nM) by replicate": "n.d. / n.d. / n.d.", "signal with controls": "0/9"}
{"CDR-H1": "GFTLNSYGIS", "CDR-H2": "VIYSDGPRTFYGDSVK", "CDR-H3": "GRAAGTFDS", "log10 Kd (nM) by replicate": "n.d. / n.d. / n.d.", "signal with controls": "0/9"}